Reference: patent US20230391745A1, “SMALL MOLECULE DEGRADERS OF THE BROMODOMAIN AND PHD FINGER TRANSCRIPTION FACTOR” (Regents of the University of Minnesota, priority 2022, published 2023)

Sequences of proteins named here, by UniProt entry; tags and fusion partners are left off. A change or cut given only in a name is not applied to a line headed by its entry. Residues count along the entry.
UniProt Q96SW2, whole entry: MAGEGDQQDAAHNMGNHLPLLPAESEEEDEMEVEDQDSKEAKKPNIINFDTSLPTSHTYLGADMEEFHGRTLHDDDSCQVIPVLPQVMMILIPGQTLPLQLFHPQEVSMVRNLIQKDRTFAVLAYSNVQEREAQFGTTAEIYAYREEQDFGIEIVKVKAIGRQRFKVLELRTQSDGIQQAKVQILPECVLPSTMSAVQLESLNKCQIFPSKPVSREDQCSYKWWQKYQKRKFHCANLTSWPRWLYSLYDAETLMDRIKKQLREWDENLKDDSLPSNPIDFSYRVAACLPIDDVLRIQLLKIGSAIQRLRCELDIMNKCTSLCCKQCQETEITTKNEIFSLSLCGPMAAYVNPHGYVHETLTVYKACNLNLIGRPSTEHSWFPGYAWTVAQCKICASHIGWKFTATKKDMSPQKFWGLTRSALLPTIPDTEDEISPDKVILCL
UniProt Q96SW2, 40-442 limits assumed: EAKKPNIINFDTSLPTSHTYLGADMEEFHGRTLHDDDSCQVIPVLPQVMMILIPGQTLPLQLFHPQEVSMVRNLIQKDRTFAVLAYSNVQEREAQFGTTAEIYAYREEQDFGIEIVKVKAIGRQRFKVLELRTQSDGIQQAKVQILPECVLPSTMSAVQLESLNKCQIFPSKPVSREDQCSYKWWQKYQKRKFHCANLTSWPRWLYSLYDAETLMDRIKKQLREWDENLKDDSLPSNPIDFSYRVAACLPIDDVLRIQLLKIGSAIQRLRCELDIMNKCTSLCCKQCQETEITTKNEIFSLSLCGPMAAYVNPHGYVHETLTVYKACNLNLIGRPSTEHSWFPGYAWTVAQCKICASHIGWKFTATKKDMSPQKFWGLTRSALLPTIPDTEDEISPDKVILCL
UniProt Q9H8M2, whole entry: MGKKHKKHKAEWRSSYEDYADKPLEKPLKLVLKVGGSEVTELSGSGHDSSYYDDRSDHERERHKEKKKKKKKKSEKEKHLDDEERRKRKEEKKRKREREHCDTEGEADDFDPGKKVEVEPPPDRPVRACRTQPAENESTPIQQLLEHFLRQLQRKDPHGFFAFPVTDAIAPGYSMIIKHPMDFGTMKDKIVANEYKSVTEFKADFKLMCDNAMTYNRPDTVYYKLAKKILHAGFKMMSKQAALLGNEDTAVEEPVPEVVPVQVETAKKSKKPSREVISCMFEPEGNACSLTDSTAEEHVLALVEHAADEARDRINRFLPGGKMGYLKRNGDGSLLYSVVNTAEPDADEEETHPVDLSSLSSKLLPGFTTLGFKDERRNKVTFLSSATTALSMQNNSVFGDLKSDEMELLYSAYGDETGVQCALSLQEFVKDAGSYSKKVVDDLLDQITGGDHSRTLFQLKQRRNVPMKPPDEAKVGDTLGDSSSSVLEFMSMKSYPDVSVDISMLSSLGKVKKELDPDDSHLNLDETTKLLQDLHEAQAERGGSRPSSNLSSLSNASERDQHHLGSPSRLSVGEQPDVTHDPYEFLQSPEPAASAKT
UniProt Q9H8M2, 136-240 limits assumed: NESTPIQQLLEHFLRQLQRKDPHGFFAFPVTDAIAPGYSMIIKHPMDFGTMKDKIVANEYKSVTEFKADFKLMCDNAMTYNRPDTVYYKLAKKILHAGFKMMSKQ
UniProt Q9BXF3, whole entry: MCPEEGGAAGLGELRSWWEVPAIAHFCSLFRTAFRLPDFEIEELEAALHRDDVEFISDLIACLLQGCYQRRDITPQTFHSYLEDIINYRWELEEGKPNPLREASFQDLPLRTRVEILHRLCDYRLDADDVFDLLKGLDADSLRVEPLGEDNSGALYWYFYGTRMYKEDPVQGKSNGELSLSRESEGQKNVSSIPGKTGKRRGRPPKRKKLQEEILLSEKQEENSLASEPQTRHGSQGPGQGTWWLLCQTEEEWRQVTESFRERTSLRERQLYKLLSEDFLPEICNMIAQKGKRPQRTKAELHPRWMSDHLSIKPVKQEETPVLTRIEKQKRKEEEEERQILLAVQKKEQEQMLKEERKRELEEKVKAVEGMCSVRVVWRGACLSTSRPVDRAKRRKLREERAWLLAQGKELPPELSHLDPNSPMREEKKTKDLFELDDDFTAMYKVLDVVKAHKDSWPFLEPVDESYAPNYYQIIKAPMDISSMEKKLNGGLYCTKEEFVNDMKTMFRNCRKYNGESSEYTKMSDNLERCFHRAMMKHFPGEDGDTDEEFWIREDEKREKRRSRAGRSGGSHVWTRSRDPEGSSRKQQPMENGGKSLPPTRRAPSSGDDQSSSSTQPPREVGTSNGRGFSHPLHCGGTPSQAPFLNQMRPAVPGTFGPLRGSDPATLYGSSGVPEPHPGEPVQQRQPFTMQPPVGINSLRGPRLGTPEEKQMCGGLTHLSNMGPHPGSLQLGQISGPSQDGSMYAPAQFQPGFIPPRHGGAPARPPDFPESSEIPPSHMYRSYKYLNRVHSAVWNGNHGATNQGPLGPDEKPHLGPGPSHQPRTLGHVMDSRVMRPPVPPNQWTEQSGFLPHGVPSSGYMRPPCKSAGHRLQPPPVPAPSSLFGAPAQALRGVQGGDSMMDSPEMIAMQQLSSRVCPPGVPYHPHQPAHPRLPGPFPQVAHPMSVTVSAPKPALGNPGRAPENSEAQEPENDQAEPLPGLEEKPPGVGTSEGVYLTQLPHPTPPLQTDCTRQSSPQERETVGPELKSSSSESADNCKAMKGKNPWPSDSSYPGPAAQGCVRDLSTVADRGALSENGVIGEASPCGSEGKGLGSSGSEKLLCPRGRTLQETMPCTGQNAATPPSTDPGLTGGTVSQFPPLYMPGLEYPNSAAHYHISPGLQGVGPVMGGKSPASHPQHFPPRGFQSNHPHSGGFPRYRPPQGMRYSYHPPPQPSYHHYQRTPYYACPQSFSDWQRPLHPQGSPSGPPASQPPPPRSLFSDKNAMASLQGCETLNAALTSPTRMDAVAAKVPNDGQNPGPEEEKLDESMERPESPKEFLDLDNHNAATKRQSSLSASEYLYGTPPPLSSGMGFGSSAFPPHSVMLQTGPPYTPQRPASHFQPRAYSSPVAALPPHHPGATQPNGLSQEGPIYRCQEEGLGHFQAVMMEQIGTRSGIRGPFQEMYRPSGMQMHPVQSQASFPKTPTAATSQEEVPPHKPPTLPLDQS
UniProt Q9BXF3, 434-538 limits assumed: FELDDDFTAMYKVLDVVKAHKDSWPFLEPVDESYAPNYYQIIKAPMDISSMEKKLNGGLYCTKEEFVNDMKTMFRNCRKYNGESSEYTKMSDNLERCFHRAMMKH
UniProt Q92831, 723-827 limits assumed: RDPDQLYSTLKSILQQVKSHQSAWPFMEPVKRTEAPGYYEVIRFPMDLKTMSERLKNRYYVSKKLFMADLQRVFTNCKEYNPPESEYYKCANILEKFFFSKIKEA
UniProt Q16531, whole entry partner: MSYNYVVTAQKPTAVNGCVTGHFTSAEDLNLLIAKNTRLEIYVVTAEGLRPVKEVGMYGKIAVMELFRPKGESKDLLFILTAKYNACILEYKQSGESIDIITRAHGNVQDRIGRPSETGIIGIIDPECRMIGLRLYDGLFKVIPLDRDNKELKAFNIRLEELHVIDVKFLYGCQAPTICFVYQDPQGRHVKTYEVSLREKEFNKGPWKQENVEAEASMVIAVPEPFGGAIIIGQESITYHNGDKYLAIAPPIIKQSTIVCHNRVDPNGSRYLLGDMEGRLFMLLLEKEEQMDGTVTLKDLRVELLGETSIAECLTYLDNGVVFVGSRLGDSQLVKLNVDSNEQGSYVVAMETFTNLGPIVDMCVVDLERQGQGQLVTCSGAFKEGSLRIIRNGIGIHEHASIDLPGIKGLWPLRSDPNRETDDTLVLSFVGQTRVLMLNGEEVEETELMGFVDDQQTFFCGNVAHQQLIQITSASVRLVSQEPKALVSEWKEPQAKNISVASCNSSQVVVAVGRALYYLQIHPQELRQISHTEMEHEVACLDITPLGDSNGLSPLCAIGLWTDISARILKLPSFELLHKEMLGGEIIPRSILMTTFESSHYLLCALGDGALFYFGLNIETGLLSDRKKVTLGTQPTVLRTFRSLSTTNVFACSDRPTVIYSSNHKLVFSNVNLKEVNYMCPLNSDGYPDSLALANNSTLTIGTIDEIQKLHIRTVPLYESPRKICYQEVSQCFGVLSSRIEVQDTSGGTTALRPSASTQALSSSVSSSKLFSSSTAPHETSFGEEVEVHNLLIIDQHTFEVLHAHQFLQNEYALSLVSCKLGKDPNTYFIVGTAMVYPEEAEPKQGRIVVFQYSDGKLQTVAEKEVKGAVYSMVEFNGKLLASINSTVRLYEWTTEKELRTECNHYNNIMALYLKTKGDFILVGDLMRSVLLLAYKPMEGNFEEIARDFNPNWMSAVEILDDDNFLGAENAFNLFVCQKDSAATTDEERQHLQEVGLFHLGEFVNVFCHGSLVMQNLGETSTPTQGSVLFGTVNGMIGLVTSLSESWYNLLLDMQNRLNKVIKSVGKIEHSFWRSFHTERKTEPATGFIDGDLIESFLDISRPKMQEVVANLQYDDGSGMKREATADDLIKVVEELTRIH

Legend:
[1] = biological target: Nluc-BPTF-BD fusion construct (Homo sapiens, UniProt Q12830+Q96SW2); assay: In-cell NanoBRET CRBN ternary complex assay with Nluc-BPTF-BD; details: 1 μM degrader, C-terminal Nluc-BPTF-BD fusion, HEK293T cells
[2] = biological target: Nluc-BRD9-FL fusion construct (Homo sapiens, UniProt Q96SW2+Q9H8M2); assay: Degradation of Nluc-BRD9-FL construct by total donor luminescence; details: similar conditions as BPTF study (1 μM, 6 h), HEK293T cells
CECR2 = CECR2 (Homo sapiens, UniProt Q9BXF3); assay: Western blotting of CECR2 in HEK293T cells; details: 6 h treatment, between 8-200 nM concentrations
[3] = biological target: GST-BPTF and His-tagged CRBN-DDB1 (Homo sapiens, UniProt Q12830+Q96SW2); assay: In vitro AlphaScreen ternary complex assay, BPTF; details: His-CRBN-DDB1, varying degrader concentrations
[4] = biological target: GST-BRD9 and His-tagged CRBN-DDB1 (Homo sapiens, UniProt Q96SW2+Q9H8M2); assay: In vitro AlphaScreen ternary complex assay, BRD9; details: GST-BRD9, His-CRBN-DDB1, varying degrader concentrations
[5] = biological target: GST-CECR2 and His-tagged CRBN-DDB1 (Homo sapiens, UniProt Q96SW2+Q9BXF3); assay: In vitro AlphaScreen ternary complex assay, CECR2; details: GST-CECR2, His-CRBN-DDB1, varying degrader concentrations
[6] = biological target: GST-PCAF and His-tagged CRBN-DDB1 (Homo sapiens, UniProt Q92831+Q96SW2); assay: In vitro AlphaScreen ternary complex assay, PCAF; details: His-CRBN-DDB1, varying degrader concentrations

Row | Structure (SMILES) | BRET ratio, fold increase over DMSO (in-cell ternary complex formation) [1] | Degradation of the Nluc-BRD9-FL construct [2] | Degradation of CECR2 by western blotting (CECR2) | Ternary complex formation with BPTF (AlphaScreen signal amplitude) [3] | Ternary complex formation with BRD9 (AlphaScreen signal amplitude) [4] | Ternary complex formation with CECR2 (AlphaScreen signal amplitude) [5] | Ternary complex formation with PCAF (AlphaScreen signal amplitude) [6]
1 | CS(=O)(=O)c1nc(NCCCn2cccn2)cc(-c2ccc(OCCCN3CCN(CCCCCCOc4cccc5c4C(=O)N(C4CCC(=O)NC4=O)C5=O)CC3)cc2)n1 (stereo not shown) | 3.1 fold | degrade BRD9-FL, albeit not as potently as dBRD9 | significant degradation | – | – | – | –
2 | CN(CCCOc1ccc(-c2cc(NCCCn3cccn3)nc(S(C)(=O)=O)n2)cc1)CCOCCOCCOc1cccc2c1C(=O)N(C1CCC(=O)NC1=O)C2=O (stereo not shown) | – | – | – | generally lower | generally lower | generally lower | generally lower
3 | CS(=O)(=O)c1nc(NCCCn2cccn2)cc(-c2ccc(OCCCN3CCN(CCOCCOCCOc4cccc5c4C(=O)N(C4CCC(=O)NC4=O)C5=O)CC3)cc2)n1 (stereo not shown) | 1.8 fold | degrade BRD9-FL, albeit not as potently as dBRD9 | significant degradation | – | – | – | –
